Laboratory results: publication PMC7147967 (Nature nanotechnology, 2020)

Tested on: pErk, pMek and pRaf-1 in MCF-7/C6 cells
Assay: Western blot of proliferation proteins
Type: cell-based, human
Conditions: 36 h; NPs 50 μM, Herceptin 15 μg/mL

## Herceptin: anti-HER2 antibody used as positive control
  phosphorylation level of Erk, Mek and Raf-1: strongly inhibit
